Measured values from article PMC4491176, “Caenorhabditis elegans is a useful model for anthelmintic discovery” (Nature Communications, 2015).
pIC50: −log10 of the molar value. Where two headings read alike, the source gives them in different places.

Sequences of proteins named here, by UniProt entry; tags and fusion partners are left off. A change or cut given only in a name is not applied to a line headed by its entry. Residues count along the entry.
UniProt O62215, whole entry: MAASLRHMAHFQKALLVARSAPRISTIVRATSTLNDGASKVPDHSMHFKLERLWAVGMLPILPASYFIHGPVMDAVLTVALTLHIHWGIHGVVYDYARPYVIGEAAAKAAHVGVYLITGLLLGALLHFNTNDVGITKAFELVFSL
UniProt P41956, whole entry: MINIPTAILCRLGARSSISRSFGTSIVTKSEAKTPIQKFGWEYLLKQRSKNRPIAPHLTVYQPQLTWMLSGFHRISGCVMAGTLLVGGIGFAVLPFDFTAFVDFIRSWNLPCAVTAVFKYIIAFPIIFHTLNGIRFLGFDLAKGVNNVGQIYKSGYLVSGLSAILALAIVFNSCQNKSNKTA
UniProt P41956, whole entry R74K: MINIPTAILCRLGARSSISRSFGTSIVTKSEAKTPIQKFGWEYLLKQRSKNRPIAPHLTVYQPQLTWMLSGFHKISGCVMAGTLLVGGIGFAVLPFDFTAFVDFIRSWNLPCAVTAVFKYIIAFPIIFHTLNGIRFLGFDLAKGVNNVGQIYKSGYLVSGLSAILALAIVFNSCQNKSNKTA
UniProt Q09508, 32-646 limits assumed: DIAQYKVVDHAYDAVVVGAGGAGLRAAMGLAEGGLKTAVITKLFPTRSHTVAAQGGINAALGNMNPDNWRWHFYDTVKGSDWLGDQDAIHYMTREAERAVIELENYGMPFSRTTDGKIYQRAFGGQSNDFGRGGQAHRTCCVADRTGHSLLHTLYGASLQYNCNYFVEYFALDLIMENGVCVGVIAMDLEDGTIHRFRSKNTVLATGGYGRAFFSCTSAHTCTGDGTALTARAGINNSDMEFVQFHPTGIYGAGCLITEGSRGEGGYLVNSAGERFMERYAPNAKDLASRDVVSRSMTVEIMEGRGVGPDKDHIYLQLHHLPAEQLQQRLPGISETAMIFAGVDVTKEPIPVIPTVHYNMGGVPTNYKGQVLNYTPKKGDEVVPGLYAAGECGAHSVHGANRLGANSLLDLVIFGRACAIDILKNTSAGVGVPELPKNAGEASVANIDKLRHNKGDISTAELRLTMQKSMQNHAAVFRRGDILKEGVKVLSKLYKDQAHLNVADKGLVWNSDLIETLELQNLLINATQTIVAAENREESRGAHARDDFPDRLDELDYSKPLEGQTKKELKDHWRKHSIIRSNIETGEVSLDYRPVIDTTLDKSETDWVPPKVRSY
UniProt Q09545, whole entry: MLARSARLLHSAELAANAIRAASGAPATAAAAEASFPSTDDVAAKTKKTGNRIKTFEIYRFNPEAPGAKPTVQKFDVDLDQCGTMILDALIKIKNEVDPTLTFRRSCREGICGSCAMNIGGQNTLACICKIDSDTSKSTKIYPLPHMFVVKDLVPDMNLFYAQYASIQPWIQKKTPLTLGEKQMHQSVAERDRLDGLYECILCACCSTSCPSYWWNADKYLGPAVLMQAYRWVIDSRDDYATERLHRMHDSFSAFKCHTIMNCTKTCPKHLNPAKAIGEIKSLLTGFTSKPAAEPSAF
UniProt Q9CQA3, 31-282 limits assumed: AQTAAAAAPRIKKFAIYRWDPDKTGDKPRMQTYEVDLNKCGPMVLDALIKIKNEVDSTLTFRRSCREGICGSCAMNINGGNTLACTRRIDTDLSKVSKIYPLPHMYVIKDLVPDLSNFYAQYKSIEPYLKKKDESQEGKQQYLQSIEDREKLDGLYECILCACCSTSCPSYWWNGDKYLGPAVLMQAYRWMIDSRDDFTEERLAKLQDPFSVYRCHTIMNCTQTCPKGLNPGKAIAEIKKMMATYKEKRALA
UniProt Q9CXV1, 57-159 limits assumed: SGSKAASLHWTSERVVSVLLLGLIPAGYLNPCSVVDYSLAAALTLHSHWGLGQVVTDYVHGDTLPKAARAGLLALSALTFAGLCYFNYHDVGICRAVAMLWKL
UniProt Q9CZB0, 30-169 limits assumed: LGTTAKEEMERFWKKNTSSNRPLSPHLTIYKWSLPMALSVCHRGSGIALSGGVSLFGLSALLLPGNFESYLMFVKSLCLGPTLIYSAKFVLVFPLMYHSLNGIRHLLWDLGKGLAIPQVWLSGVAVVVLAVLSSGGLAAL
UniProt Q8K2B3, 43-664 partner limits assumed: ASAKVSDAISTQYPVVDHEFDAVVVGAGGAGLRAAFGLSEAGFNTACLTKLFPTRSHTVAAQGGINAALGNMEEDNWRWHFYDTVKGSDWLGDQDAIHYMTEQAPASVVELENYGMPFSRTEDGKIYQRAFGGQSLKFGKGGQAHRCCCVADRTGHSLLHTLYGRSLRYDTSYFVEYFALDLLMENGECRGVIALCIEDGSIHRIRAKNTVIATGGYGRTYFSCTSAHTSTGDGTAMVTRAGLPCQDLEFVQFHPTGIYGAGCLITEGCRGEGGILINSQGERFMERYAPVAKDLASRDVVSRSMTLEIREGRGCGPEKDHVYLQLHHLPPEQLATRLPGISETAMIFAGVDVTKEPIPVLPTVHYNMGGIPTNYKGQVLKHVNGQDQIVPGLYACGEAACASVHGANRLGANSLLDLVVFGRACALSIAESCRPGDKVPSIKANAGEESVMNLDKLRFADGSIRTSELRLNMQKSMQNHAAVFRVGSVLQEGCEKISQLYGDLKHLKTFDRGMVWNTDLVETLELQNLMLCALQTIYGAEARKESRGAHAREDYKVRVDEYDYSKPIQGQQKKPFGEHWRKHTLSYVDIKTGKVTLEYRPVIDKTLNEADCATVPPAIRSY

Columns and labels:
[1] = target: wild-type C. elegans complex II (Caenorhabditis elegans, UniProt O62215+P41956+Q09508+Q09545); assay: Cell-free Complex II functional assay, mitochondria from wild-type (N2) worms; conditions: for pIC50: read-out: In vitro Complex II IC50, C. elegans, strain N2, SDHC residue change none; for Decrease of complex II inhibition relative to wact-11: C. elegans N2 complex II IC50 ratio; for IC50 lower than that of wact-11: C. elegans N2 complex II
C. elegans N2 = assay: 96-well liquid-based dose-response (in vivo LD100), wild-type worms; conditions: lowest concentration with no viable animals in four of four wells, 6 days after 20 L1 worms deposited
Procedure: (§1) The 96-well liquid-based chemical screening assay was adapted from an established RNAi screening protocol. Briefly, saturated HB101 Escherichia coli culture was concentrated 2-fold using NGM (nematode growth media) containing 3 mg ml^−1 NaCl, 2.5 mg ml^−1 peptone, 5 μg ml^−1 cholesterol, 1 mM CaCl2, 1 mM MgSO4 and 25 mM KH2PO4. A total of 40 μl of NGM+HB101 was dispensed into each well of a 96-well plate, and chemicals were pinned into the wells using a pinning tool with a 300 nl slot volume (V&P Scientific). Approximately 20 synchronized first larval-stage (L1) worms, in 10 μl of M9 buffer (see ref. [24] for the recipe), were then added to each well. The synchronized L1s were obtained from an embryo preparation (see ref. [24] for the protocol) performed the previous day. The final concentration of dimethyl sulfoxide (DMSO) in the wells was 0.6% v/v. A dissection microscope was used to visualize the wells either 5 or 6 days post worm deposition and any obvious chemical-induced phenotypes were noted.
(§2) The 96-well liquid-based assay was also used for all follow-up dose-response experiments in this work. These experiments were carried out in quadruplicate, and the total number of worms in each well was counted 6 days after worm deposition.

[2] = target: C. elegans complex II with SDHC-1(R74K) missense mutation (Caenorhabditis elegans, UniProt O62215+P41956+Q09508+Q09545, R74K); assay: Cell-free Complex II functional assay, mitochondria from wact-11-resistant mutants RP2674 and RP2698
Procedure: HB101 E. coli cells (C. elegans Genetics Center, University of Minnesota) from a 1 l saturated culture were pelleted by centrifugation at 2,500g for 10 min, and then resuspended in 50 ml complete S-medium (see ref. [37] for recipe). In all, 450,000 synchronized first larval-stage worms, in M9 buffer, were added to the S-media/HB101 suspension and were grown to adulthood over 3.5 days at 20 °C with shaking at 200 r.p.m. Worms were collected in 6 × 15 ml conical tubes and washed eight times with M9 buffer. The worms from the six tubes were combined into one 15 ml conical tube, and resuspended in 15 ml M9 buffer. One millilitre aliquots of the worm suspension were distributed to each of the 15 × 1.5 ml Sarstedt microcentrifuge tubes. The worms were pelleted by centrifugation at 800g, and the M9 buffer was aspirated without disrupting the pellet. […]
(§3) Mitochondrial pellets were thawed on ice and resuspended in 300 μl of cold isolation buffer B. Using the BCA assay, the protein concentration of the mitochondria suspension was determined and was subsequently diluted to a concentration of 0.2 mg ml^−1 with cold isolation buffer B. Complex II enzymatic assays were carried out in 96-well flat bottom plates. […] Absorbance for each well was measured at 600 nm using a SpectraMax Plus 384-well Microplate Reader, combined with SoftmaxPro software at 30-s intervals over a 35-min time period. […]

[3] = tested on: wact-11-family resistant C. elegans mutants (RP2674, RP2698 and others); assay: 96-well liquid-based dose-response (in vivo LD100), wact-11-family resistant mutants; conditions: 6 days
Procedure: as §1, §2

Mouse complex II = Mouse complex II (Mus musculus, UniProt Q9CQA3+Q9CXV1+Q9CZB0); assay: Cell-free Complex II functional assay, mouse liver mitochondria; conditions: read-out: In vitro Complex II IC50; M. musculus, C57Bl/6 liver mitochondria
Procedure: The livers from three 8–10-week-old C57Bl/6 female mice (Charles River) were removed, collected in 1.5 ml microcentrifuge tubes, flash frozen in liquid nitrogen and stored at −80 °C until needed. Just before mitochondria isolation, the livers were weighed, placed into a 10-cm petri dish and 10 ml isolation buffer A was added per gram of liver tissue. The tissue was finely minced with a razor blade, transferred to a glass Dounce homogenizer and homogenized by 10 strokes on ice. The homogenate was centrifuged at 1,000g for 10 min at 4 °C. The supernatant was collected and centrifuged at 1,000g for 10 min at 4 °C. The supernatant was again collected and centrifuged at 16,000g for 10 min at 4 °C. […]
as §3, with “period. Absorbance versus time was plotted for each well and enzyme activity was calculated as the slope of the line defined by the points ranging from 4 to 10 min.” for “period.”

| SMILES | pIC50 [1] | In vivo LD100 (C. elegans N2) | also measured |
| --- | --- | --- | --- |
| O=C(NCCc1ccccc1)c1ccccc1C(F)(F)F | 7.58 | 60 µM | – |
| O=C(NCCSc1ccc(Cl)cc1)c1ccccc1I | 6.89 | >120 µM | – |
| O=C(NCCc1ccc(Cl)cc1)c1ccc(C(F)(F)F)cc1 | < 5.00 | >120 µM | Decrease of complex II inhibition relative to wact-11 [1]: at least 1,300 fold |
| O=C(NCCc1ccc(F)cc1)c1ccccc1I | 7.82 | 60 µM | – |
| O=C(NCCOc1ccc(Cl)cc1)c1ccccc1Br | 8.11 | 30 µM | – |
| O=C(NCCc1ccc(Cl)cc1Cl)c1ccccc1Br | 9.00 | 0.469 µM | IC50 lower than that of wact-11 [1]: over 7 fold |
| O=C(NCCc1ccc(Cl)cc1)c1ccccc1I | 8.24 | 7.5 µM | – |
| Cc1ccc(OCCNC(=O)c2ccccc2I)cc1 | 8.11 | 7.5 µM | – |
| O=C(NCCc1ccc(Cl)cc1)c1ccccc1Br | 8.12 | 1.875 µM | – |
| O=C(NCCc1ccc(Cl)cc1)c1ccccc1 | 6.20 | >120 µM | Decrease of complex II inhibition relative to wact-11 [1]: at least 86 fold |
| O=C(NCCc1ccc(Cl)cc1Cl)c1ccccc1C(F)(F)F | 9.00 | 0.469 µM | IC50 lower than that of wact-11 [1]: over 7 fold; pIC50 ([2]; read-out: In vitro Complex II IC50, strain RP2674, SDHC R74K): < 5.00; pIC50 ([2]; read-out: In vitro Complex II IC50, strain RP2698, SDHC R74K): < 5.00; In vivo LD100 ([3]; C. elegans strain RP2674 (SDHC R74K)): >120 µM; In vivo LD100 ([3]; C. elegans strain RP2698 (SDHC R74K)): >120 µM; pIC50 (Mouse complex II): < 5.00 |
| O=C(NCCc1ccc(Cl)cc1)c1ccccc1F | 6.77 | 60 µM | – |
